# Antibody variant affinities, Ab-91 heavy chain, assay 2

Antigen: PDVDLGDISGINAS, a 14-residue peptide of the SARS-CoV-2 spike HR2 region.

Parent: Ab-91, a human scFv built as VL, three GGGGS repeats, VH. Only the CDRs of the heavy chain vary.
VL: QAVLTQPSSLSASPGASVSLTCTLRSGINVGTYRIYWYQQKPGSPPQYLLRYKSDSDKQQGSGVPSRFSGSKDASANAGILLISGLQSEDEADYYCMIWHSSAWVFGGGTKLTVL
VH: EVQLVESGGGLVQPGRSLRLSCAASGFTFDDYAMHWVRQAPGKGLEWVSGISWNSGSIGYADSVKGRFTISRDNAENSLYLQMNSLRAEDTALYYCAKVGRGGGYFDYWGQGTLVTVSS

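AAYL51 was designed without a model: most single CDR substitutions and a random sample of double and triple ones. The scFvs were displayed on barcoded MATa yeast, the peptide on MATalpha yeast. The frequency of each diploid, read from paired DNA barcodes, reflects how well the two displayed proteins bind. A regression on co-assayed BCL2-family reference pairs converts the normalised counts of each replicate to an apparent Kd. Mating was done three times.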

Changes read parent residue, position, new residue, counted from the first residue of the VH shown. Numbers give log10(Kd / nM), so 0 is 1 nM and 3 is 1 µM. Smaller is tighter. A pair that was not seen in that replicate is written "nd"; this usually means weak binding, but a binder can also be missed. Three control strains display no target. For library AAYL51, 21% of the pairings with them gave a signal, with a median of 4.54 and one signal in twenty below 3.26, so weak values seen in few replicates may be background. For each scFv, signals with the empty controls are counted beside the result, with their mean in brackets. For reference, the parent read 1.86 as the reference entry and 0.88 as a member of this library.

changes	log10 Kd (nM) by replicate	control signals
G26T S52W F106E	4.74 4.24 nd	2/9 (4.87)
S55L V99K G103P	nd 4.64 nd	2/9 (5.00)
I51P D62P V64C	nd nd nd	3/9 (5.01)
Y108T	0.80 0.81 0.26	1/9 (5.26)
S52Y S63I G100K	4.52 4.80 nd	5/9 (4.15)
Y32H D107G	4.07 4.00 3.61	4/9 (4.53)
F29L I58N G103L	4.49 4.87 nd	2/9 (5.00)
F27W T28D D62K	nd nd nd	0/9
W53I R101Q G102M	nd 6.48 nd	4/9 (4.77)
Y32K A61I S63E	nd nd nd	0/9
H35M S52I G102V	nd nd nd	1/9 (3.86)
G50T D62F G102H	nd nd nd	0/9
G26V I58H V64K	4.15 6.84 4.05	4/9 (5.27)
W53L I58C Y105R	nd nd nd	1/9 (3.94)
H35R S57I K65D	nd 4.00 nd	1/9 (3.88)
G100L D107R	nd nd nd	0/9
F29C G102F D107C	nd 4.77 nd	2/9 (5.16)
D30T Y32P G102E	-0.07 -0.18 -1.00	4/9 (4.72)
D30W S52L K65G	nd nd nd	1/9 (5.00)
D31G G56R	nd nd nd	0/9
F27K I51N S52D	nd nd nd	3/9 (4.31)
I58F K65V V99A	4.67 5.75 nd	4/9 (3.96)
M34Q N54L I58W	3.86 nd nd	0/9
D30P S52L G102W	nd nd 4.19	1/9 (4.83)
G102Q D107S	nd nd nd	1/9 (2.57)
F29G D31A D107S	nd nd nd	0/9
F27H S63T G102F	nd nd nd	1/9 (4.02)
T28Y I51S F106E	5.04 nd 4.78	2/9 (4.50)
T28M I58E G100M	3.49 3.48 3.27	4/9 (4.61)
F27E K65Y Y105C	5.33 nd nd	0/9
S52D Y60P	nd nd nd	0/9
M34I S55C G102P	nd nd nd	0/9
H35G N54D Y108I	3.77 5.24 4.88	3/9 (4.43)
D30R S63A G103W	nd nd 3.98	3/9 (4.71)
N54F S55P K65N	nd 5.42 nd	3/9 (5.01)
D30C H35I V64M	nd nd nd	1/9 (3.67)
I51R F106S Y108Q	nd nd nd	2/9 (3.34)
D30G G56I G102S	3.12 2.74 2.32	0/9
D31V S63G Y105M	nd 4.28 3.86	1/9 (4.33)
W53D V64G	nd nd nd	0/9
F29D I58Q F106A	5.80 nd 5.52	6/9 (4.72)
G56L V99S	nd nd nd	1/9 (4.04)
I51P D62F G100I	4.56 5.49 nd	5/9 (5.24)
N54Q A61P F106Q	nd nd nd	1/9 (3.24)
N54A S63G V99R	3.74 nd nd	0/9
M34F Y60V D107R	6.06 5.78 nd	3/9 (4.33)
S57C I58C D62K	5.66 nd 4.08	6/9 (5.33)
V64H Y105Q Y108V	4.42 5.47 6.24	7/9 (4.84)
T28N H35K S57A	nd nd nd	1/9 (3.50)

From the list, the first 3 with no signal in any replicate:

{"changes": "I51P D62P V64C", "log10 Kd (nM) by replicate": "nd nd nd", "control signals": "3/9 (5.01)"}
{"changes": "F27W T28D D62K", "log10 Kd (nM) by replicate": "nd nd nd", "control signals": "0/9"}
{"changes": "Y32K A61I S63E", "log10 Kd (nM) by replicate": "nd nd nd", "control signals": "0/9"}

Reference: Engelhart et al. 2022, doi:10.1038/s41597-022-01779-4. File: FLAb, binding data.